# Target: Recombinant human cathepsin S (CatS) (Homo sapiens, UniProt P25774)
# Chains of the proteins cited; added tags and fusions are not shown. Residues count along the entry.
# UniProt P25774, 115-331: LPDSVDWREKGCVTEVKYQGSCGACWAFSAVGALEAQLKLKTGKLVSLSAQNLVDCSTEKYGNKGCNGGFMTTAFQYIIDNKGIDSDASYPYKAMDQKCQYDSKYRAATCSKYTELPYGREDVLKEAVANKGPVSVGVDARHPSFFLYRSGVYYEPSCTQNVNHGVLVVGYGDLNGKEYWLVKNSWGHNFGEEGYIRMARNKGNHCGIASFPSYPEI
# Test: biochemical
row,Structure (SMILES),IC50
1,"COc1ccc(C2CCN(CC(O)Cn3nc(-c4ccc(C(F)(F)F)c(SCCN5CCCCC5)c4)c4c3CCNC4)CC2)cc1 (stereo not shown) [Example 446, 1-{4-[4-(Methyloxy)phenyl]piperidin-1-yl}-3-(3-{3-[(2-piperidin-1-ylethyl)sulfanyl]-4-(trifluoromethyl)phenyl}-4,5,6,7-tetrahydro-1H-pyrazolo[4,3-c]pyridin-1-yl)propan-2-ol]",0.21 µM
2,"Oc1ccccc1N1CCN(CC(O)Cn2nc(-c3ccc(C(F)(F)F)c(SCCN4CCCCC4)c3)c3c2CCNC3)CC1 (stereo not shown) [Example 385, 2-{4-[2-Hydroxy-3-(3-{3-[(2-piperidin-1-ylethyl)sulfanyl]-4-(trifluoromethyl)phenyl}-4,5,6,7-tetrahydro-1H-pyrazolo[4,3-c]pyridin-1-yl)propyl]piperazin-1-yl}phenol]",0.35 µM
3,CC(=O)NC1CCN(CCSc2cc(-c3nn(C[C@@H](O)CN4CCOCC4)c4c3CN(S(C)(=O)=O)CC4)ccc2C(F)(F)F)CC1 [Example 285],2.65 µM
4,"NC(=O)NC1CCN(CC(O)Cn2nc(-c3ccc(C(F)(F)F)c(SCCN4CCCCC4)c3)c3c2CCNC3)CC1 (stereo not shown) [Example 320, 1-{1-[2-Hydroxy-3-(3-{3-[(2-piperidin-1-ylethyl)sulfanyl]-4-(trifluoromethyl)phenyl}-4,5,6,7-tetrahydro-1H-pyrazolo[4,3-c]pyridin-1-yl)propyl]piperidin-4-yl}urea]",2.26 µM
5,"CS(=O)(=O)N1CCc2c(c(-c3ccc(C(F)(F)F)c(SCCN4CCC(F)CC4)c3)nn2CC(O)CN2CCC(NC(=O)CO)CC2)C1 (stereo not shown) [Example 195, N-[1-(3-{3-[3-{[2-(4-Fluoropiperidin-1-yl)ethyl]sulfanyl}-4-(trifluoromethyl)phenyl]-5-(methylsulfonyl)-4,5,6,7-tetrahydro-1H-pyrazolo[4,3-c]pyridin-1-yl}-2-hydroxypropyl)piperidin-4-yl]-2-hydroxyacetamide]",0.06 µM
6,"CS(=O)(=O)N1CCc2c(c(-c3ccc(C(F)(F)F)c(SCCN4CCCCC4Cc4ccccc4)c3)nn2CCCN2CCC(N3CCCC3=O)CC2)C1 (stereo not shown) [Example 877, 1-[1-(3-{5-(Methylsulfonyl)-3-[3-({2-[2-(phenylmethyl)piperidin-1-yl]ethyl}sulfanyl)-4-(trifluoromethyl)phenyl]-4,5,6,7-tetrahydro-1H-pyrazolo[4,3-c]pyridin-1-yl}propyl)piperidin-4-yl]pyrrolidin-2-one]",0.49 µM
7,"CC1CCN(C[C@H](O)Cn2nc(-c3ccc(C(F)(F)F)c(SCCN4CC[C@H](F)C4)c3)c3c2CCN(S(C)(=O)=O)C3)CC1 [Example 409, (2S)-1-{3-[3-({2-[(3S)-3-Fluoropyrrolidin-1-yl]ethyl}sulfanyl)-4-(trifluoromethyl)phenyl]-5-(methylsulfonyl)-4,5,6,7-tetrahydro-1H-pyrazolo[4,3-c]pyridin-1-yl}-3-(4-methylpiperidin-1-yl)propan-2-ol]",0.59 µM
8,"CCOc1ccccc1N1CCN(CC(O)Cn2nc(-c3ccc(C(F)(F)F)c(SCCN4CCCCC4)c3)c3c2CCN(S(C)(=O)=O)C3)CC1 (stereo not shown) [Example 830, 1-{4-[2-(Ethyloxy)phenyl]piperazin-1-yl}-3-[5-(methylsulfonyl)-3-{3-[(2-piperidin-1-ylethyl)sulfanyl]-4-(trifluoromethyl)phenyl}-4,5,6,7-tetrahydro-1H-pyrazolo[4,3-c]pyridin-1-yl]propan-2-ol]",0.025 µM
9,"CS(=O)(=O)N1CCc2c(c(-c3ccc(C(F)(F)F)c(SCCN4CCC(F)CC4)c3)nn2CC(O)CN2CCC[C@@H](O)C2)C1 (stereo partly drawn) [Example 483, (3R)-1-(3-{3-[3-{[2-(4-Fluoropiperidin-1-yl)ethyl]sulfanyl}-4-(trifluoromethyl)phenyl]-5-(methylsulfonyl)-4,5,6,7-tetrahydro-1H-pyrazolo[4,3-c]pyridin-1-yl}-2-hydroxypropyl)piperidin-3-ol]",0.41 µM
10,"CC(=O)N1CCc2c(c(-c3ccc(C(F)(F)F)c(SCC(=O)N4CCOCC4)c3)nn2CC(O)CN2CCC(C(=O)N3CCCC3)CC2)C1 (stereo not shown) [Example 661, 1-(5-Acetyl-3-{3-[(2-morpholin-4-yl-2-oxoethyl)sulfanyl]-4-(trifluoromethyl)phenyl}-4,5,6,7-tetrahydro-1H-pyrazolo[4,3-c]pyridin-1-yl)-3-[4-(pyrrolidin-1-ylcarbonyl)piperidin-1-yl]propan-2-ol]",0.11 µM
11,"CS(=O)(=O)N1CCc2c(c(-c3ccc(C(F)(F)F)c(SCCNC4CCCC4)c3)nn2CCCN2CCC(N3CCCC3=O)CC2)C1 [Example 23, 1-[1-(3-{3-[3-(2-Cyclopentylamino-ethylsulfanyl)-4-trifluoromethyl-phenyl]-5-methanesulfonyl-4,5,6,7-tetrahydro-pyrazolo[4,3-c]pyridin-1-yl}-propyl)-piperidin-4-yl]-pyrrolidin-2-one]",0.27 µM
12,"CC1CCN(C[C@H](O)Cn2nc(-c3ccc(C(F)(F)F)c(SCCN4CCC(F)(F)CC4)c3)c3c2CCN(S(C)(=O)=O)C3)CC1 [Example 576, (2S)-1-{3-[3-{[2-(4,4-Difluoropiperidin-1-yl)ethyl]sulfanyl}-4-(trifluoromethyl)phenyl]-5-(methylsulfonyl)-4,5,6,7-tetrahydro-1H-pyrazolo[4,3-c]pyridin-1-yl}-3-(4-methylpiperidin-1-yl)propan-2-ol]",0.085 µM
13,"CS(=O)(=O)N1CCc2c(c(-c3ccc(C(F)(F)F)c(SCCNCCC4=CCCCC4)c3)nn2CCCN2CCC(N3CCCC3=O)CC2)C1 [Example 46, 1-{1-[3-(3-{3-[2-(2-Cyclohex-1-enyl-ethylamino)-ethylsulfanyl]-4-trifluoromethyl-phenyl}-5-methanesulfonyl-4,5,6,7-tetrahydro-pyrazolo[4,3-c]pyridin-1-yl)-propyl]-piperidin-4-yl}-pyrrolidin-2-one]",0.73 µM
14,"CS(=O)(=O)N1CCc2c(c(-c3ccc(C(F)(F)F)c(SCCN4CCC(F)CC4)c3)nn2CC(O)CN2CCC(N3CC(O)CC3=O)CC2)C1 (stereo not shown) [Example 823, 1-[1-(3-{3-[3-{[2-(4-Fluoropiperidin-1-yl)ethyl]sulfanyl}-4-(trifluoromethyl)phenyl]-5-(methylsulfonyl)-4,5,6,7-tetrahydro-1H-pyrazolo[4,3-c]pyridin-1-yl}-2-hydroxypropyl)piperidin-4-yl]-4-hydroxypyrrolidin-2-one]",0.055 µM
15,"CS(=O)(=O)N1CCc2c(c(-c3ccc(C(F)(F)F)c(SCCN4CCC(O)CC4)c3)nn2CC(O)CN2CCCCC2)C1 (stereo not shown) [Example 169, 1-[2-({5-[1-(2-Hydroxy-3-piperidin-1-ylpropyl)-5-(methylsulfonyl)-4,5,6,7-tetrahydro-1H-pyrazolo[4,3-c]pyridin-3-yl]-2-(trifluoromethyl)phenyl}sulfanyl)ethyl]piperidin-4-ol]",0.57 µM
16,"O=C(CO)N1CCc2c(c(-c3ccc(C(F)(F)F)c(SCCN4CCC(F)(F)C4)c3)nn2CC(O)CN2CCC(O)(c3ccccn3)CC2)C1 (stereo not shown) [Example 730, 1-(3-{3-[3-{[2-(3,3-Difluoropyrrolidin-1-yl)ethyl]sulfanyl}-4-(trifluoromethyl)phenyl]-5-(hydroxyacetyl)-4,5,6,7-tetrahydro-1H-pyrazolo[4,3-c]pyridin-1-yl}-2-hydroxypropyl)-4-pyridin-2-ylpiperidin-4-ol]",0.06 µM

# From US20090099157A1, “TETRAHYDRO-PYRAZOLO-PYRIDINE THIOETHER MODULATORS OF CATHEPSIN S” (priority 2007, published 2009)
